From PMC6271384, “Synthesis, Cytotoxicity and Mechanistic Evaluation of 4-Oxoquinoline-3-carboxamide Derivatives: Finding New Potential Anticancer Drugs” (Molecules, 2014)

Amino acid sequences for entries named in this document (tags omitted). A change or cut given only in a name is not applied to a line headed by its entry.
UniProt P11388: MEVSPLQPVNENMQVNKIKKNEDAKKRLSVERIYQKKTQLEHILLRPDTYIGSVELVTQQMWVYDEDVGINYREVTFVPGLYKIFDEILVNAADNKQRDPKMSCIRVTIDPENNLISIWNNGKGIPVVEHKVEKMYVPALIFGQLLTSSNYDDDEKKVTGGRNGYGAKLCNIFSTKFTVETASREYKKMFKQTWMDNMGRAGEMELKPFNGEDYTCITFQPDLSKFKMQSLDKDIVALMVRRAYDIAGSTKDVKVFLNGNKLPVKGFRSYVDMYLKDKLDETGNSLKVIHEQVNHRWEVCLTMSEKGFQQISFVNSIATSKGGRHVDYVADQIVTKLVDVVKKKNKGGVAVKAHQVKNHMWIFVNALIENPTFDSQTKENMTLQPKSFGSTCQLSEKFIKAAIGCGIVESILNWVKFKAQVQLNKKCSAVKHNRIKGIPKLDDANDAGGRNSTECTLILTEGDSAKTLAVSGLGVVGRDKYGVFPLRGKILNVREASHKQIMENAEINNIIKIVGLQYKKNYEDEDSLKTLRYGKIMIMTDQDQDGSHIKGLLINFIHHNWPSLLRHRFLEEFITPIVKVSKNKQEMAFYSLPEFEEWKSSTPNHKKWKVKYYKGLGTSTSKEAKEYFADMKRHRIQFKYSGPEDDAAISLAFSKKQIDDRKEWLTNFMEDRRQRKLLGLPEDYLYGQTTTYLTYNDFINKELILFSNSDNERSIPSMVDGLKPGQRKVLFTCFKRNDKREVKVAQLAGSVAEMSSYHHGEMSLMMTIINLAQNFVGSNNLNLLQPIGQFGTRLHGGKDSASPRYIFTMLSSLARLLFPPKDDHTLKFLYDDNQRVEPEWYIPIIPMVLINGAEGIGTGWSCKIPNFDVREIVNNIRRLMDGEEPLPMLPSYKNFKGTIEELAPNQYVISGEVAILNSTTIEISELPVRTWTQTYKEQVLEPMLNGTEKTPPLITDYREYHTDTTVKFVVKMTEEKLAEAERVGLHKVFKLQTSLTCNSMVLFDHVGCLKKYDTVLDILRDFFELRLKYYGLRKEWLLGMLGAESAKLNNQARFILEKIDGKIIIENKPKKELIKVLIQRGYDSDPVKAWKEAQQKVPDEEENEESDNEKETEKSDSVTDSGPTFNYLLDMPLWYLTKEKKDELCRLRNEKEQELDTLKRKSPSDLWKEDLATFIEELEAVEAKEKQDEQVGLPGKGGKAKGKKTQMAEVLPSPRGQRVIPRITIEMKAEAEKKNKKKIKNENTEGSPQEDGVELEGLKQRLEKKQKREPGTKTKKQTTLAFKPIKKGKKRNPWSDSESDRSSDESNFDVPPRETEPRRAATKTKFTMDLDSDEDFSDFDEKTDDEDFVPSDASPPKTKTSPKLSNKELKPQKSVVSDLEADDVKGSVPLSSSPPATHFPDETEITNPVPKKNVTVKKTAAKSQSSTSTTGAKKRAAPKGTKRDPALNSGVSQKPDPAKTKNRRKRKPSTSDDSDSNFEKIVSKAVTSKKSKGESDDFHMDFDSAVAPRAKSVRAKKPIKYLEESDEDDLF

Target: T1, Human topoisomerase IIα (TopoIIα) (Homo sapiens, UniProt P11388)
T1 construct: purchased TopoGEN, Inc. (Columbus, OH, USA)
Assay: DNA relaxation assay (Topoisomerase II Drug Screening Kit)
Type: biochemical
Conditions: 100 µM compound, 10 U enzyme, 37 °C, 30 min, agarose gel
Method: Human topoisomerase IIα (TopoIIα) was obtained from TopoGEN, Inc. (Columbus, OH, USA). Proteinase K from Tritirachium album was obtained from Sigma-Aldrich, Inc. (St. Louis, MO, USA) and was dissolved in DNase free water. A TAE gel electrophoresis buffer was used in this assay.
The inhibitory effects of the derivatives on human TopoIIα were measured using a Eukaryotic Topoisomerase II Drug Screening Kit (TopoGEN, Inc.). All derivatives were dissolved in DMSO immediately prior to testing.
The substances were tested at a fixed concentration of 0.1 mM. This assay concentration was chosen based on the effective concentration of the VP-16 (etoposide) standard (0.1 mM), as recommended by the kit manufacturer (TopoGen). […] There was no interference in enzyme function with concentrations from 0%–5% DMSO. Supercoiled plasmid DNA (pRYG, 200 ng) was incubated with human TopoIIα (10 U) at 37 °C for 30 min in relaxation buffers in the absence or presence of derivatives (final volume is 20 μL). The order of reagent addition was buffer, test derivative, Topo IIα and finally DNA.
The assay samples were analyzed by electrophoresis on a 1% agarose gel without EtdBr (25 V, 18 h, room temperature) in TAE buffer, followed by staining in 0.5 μg/mL of EtdBr to allow for observation of the DNA bands under UV light.

COc1cc([C@@H]2c3cc4c(cc3[C@@H](O[C@@H]3O[C@@H]5CO[C@@H](C)O[C@H]5[C@H](O)[C@H]3O)[C@H]3COC(=O)[C@H]23)OCO4)cc(OC)c1O [VP-16, etoposide, reference compound]
inhibition of supercoiled DNA (pRYG) relaxation by topoisomerase II: only the SC band is observed, which indicates topoisomerase inhibition
